Antibody variant affinities, Ab-14 heavy chain, assay 1

Data: MIT Lincoln Laboratory AlphaSeq set, Engelhart et al. 2022, doi:10.1038/s41597-022-01779-4, as distributed in FLAb.

Binding partner: SARS-CoV-2 spike HR2 peptide, sequence PDVDLGDISGINAS.

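Phage display of a naive human antibody library on the peptide gave the parent. In library AAYL49, one, two or three CDR residues were substituted; doubles and triples were drawn at random. AlphaSeq pools MATa yeast showing the antibodies with MATalpha yeast showing the peptide. Mating (16 h, 30 °C) was followed by selection of diploids and sequencing of their barcodes. A regression on co-assayed BCL2-family reference pairs converts the normalised counts of each replicate to an apparent Kd. There are three technical replicates.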

Each scFv is VH, a (GGGGS)3 linker, VL, as in the parent Ab-14, and differs from it in the CDRs of the heavy chain only.
VH: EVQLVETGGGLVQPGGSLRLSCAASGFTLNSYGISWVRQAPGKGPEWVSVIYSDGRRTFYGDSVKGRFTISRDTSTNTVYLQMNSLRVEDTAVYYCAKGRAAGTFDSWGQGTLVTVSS
VL: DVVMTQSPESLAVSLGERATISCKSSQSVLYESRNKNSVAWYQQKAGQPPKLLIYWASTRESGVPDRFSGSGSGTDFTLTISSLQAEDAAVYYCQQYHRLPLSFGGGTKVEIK

The parent's heavy chain CDRs are GFTLNSYGIS, VIYSDGRRTFYGDSVK, GRAAGTFDS; each variant's own CDRs replace them letter for letter.
Every variant below is changed at G61 of the VH (sequential numbering).
The Kd shown is the geometric mean over detected replicates; a lower Kd is a better binder.
"no signal" means that the variant was in the library but no mating with the target was seen in any replicate; the authors take this as a sign of poor binding, and no number exists.

The variant GFTIQSYGIS, VIYSDGRRTFYIDSVK, GRAAGTFDS showed 24 nM (3 of 3 replicates; controls 0 of 9).
The variant GFTLNSYGIS, VIYSDGRYTFYEDSVK, KRAAGTFDS showed no signal (0 of 3 replicates; controls 0 of 9).
The variant IFTLASYGIS, VIYSDGRRTFYKDSVK, GRAAGTFDS showed 3.4 µM (3 of 3 replicates; controls 3 of 9).
The variant GFTLNSYGIS, VIYSDGRRTFYRDSVK, VRYAGTFDS showed 25 nM (3 of 3 replicates; controls 1 of 9).
The variant GFTLCSYGIS, VIYCDGRRTFYSDSVK, GRAAGTFDS showed 830 µM (1 of 3 replicates; controls 6 of 9).
The variant VFTLNSYGIS, VIQSDGRRTFYEDSVK, GRAAGTFDS showed no signal (0 of 3 replicates; controls 0 of 9).
The variant GFTLNSYGIS, VIYSDGRRTFYCDSVK, GNCAGTFDS showed no signal (0 of 3 replicates; controls 0 of 9).
The variant GFCLNSYGIS, VIYSDGRRTFYNDSIK, GRAAGTFDS showed 35 µM (1 of 3 replicates; controls 3 of 9).
The variant GFTLNSYGES, VIYSDGRRTFYNESVK, GRAAGTFDS showed 11 µM (2 of 3 replicates; controls 5 of 9).
The variant GFLLNSYGIK, VIYSDGRRTFYKDSVK, GRAAGTFDS showed no signal (0 of 3 replicates; controls 0 of 9).
The variant GFTLNCYGIS, VIYSDGRRTFYADSVK, KRAAGTFDS showed 23 nM (3 of 3 replicates; controls 0 of 9).
The variant GFTANSYGVS, VIYSDGRRTFYFDSVK, GRAAGTFDS showed 4.9 µM (1 of 3 replicates; controls 1 of 9).
The variant GFTLNSYGIS, HIYSDGRRTFYFDSLK, GRAAGTFDS showed no signal (0 of 3 replicates; controls 2 of 9).
The variant GFTLNSYGIS, VIYSDGRRTFYIDSVK, GRAAGTHDR showed 29 µM (3 of 3 replicates; controls 6 of 9).
The variant SFTLNSYGIS, VIYFDGRRTFYDDSVK, GRAAGTFDS showed 250 nM (3 of 3 replicates; controls 0 of 9).
The variant GFTLNHYGIS, VIYSDGRLTFYRDSVK, GRAAGTFDS showed 1.5 µM (1 of 3 replicates; controls 0 of 9).
The variant GFTLNSYGIS, VIYSDGRREFMTDSVK, GRAAGTFDS showed 18 nM (3 of 3 replicates; controls 5 of 9).
The variant GFELNSYGIS, VIYSDGRRTFYLDSVK, GRAAGSFDS showed 54 nM (3 of 3 replicates; controls 1 of 9).
The variant GFTLNSYGIS, VIYSDGRKTDYPDSVK, GRAAGTFDS showed no signal (0 of 3 replicates; controls 0 of 9).
The variant GFTLNSYGIS, VIYSDGRCTFYCDSVK, GRAAGYFDS showed 50 µM (1 of 3 replicates; controls 4 of 9).
The variant GFTLNSYCIS, VIYSDGRRTLYLDSVK, GRAAGTFDS showed 2.2 µM (1 of 3 replicates; controls 1 of 9).
The variant GFTLNSYGIS, VIRSDGRRTFYCDSVK, GRAAGTFDH showed 34 µM (1 of 3 replicates; controls 2 of 9).
The variant GFTLNSYLIS, VIYSDGRRTFYNDSVK, GKAAGTFDS showed no signal (0 of 3 replicates; controls 1 of 9).
The variant GFTLNSYGIS, VDYSDGRRTFYDDSVK, GRAAGTFDS showed 5.8 µM (1 of 3 replicates; controls 0 of 9).
The variant GFCLNSYGIS, YIYSDGRRTFYRDSVK, GRAAGTFDS showed no signal (0 of 3 replicates; controls 0 of 9).
The variant GFTLNSYGIS, VIYSDGRRTFYHDSVK, GRAAGTFDS showed 1.7 nM (3 of 3 replicates; controls 0 of 9).
The variant GFTMNSYGIS, VIQSDGRRTFYTDSVK, GRAAGTFDS showed no signal (0 of 3 replicates; controls 1 of 9).
The variant GFTLNSYGIS, VIYSDLRRTFCDDSVK, GRAAGTFDS showed no signal (0 of 3 replicates; controls 0 of 9).
The variant GFTLNSYGIS, VIYSDGRRTFYFRSVK, GRAAMTFDS showed 51 µM (1 of 3 replicates; controls 3 of 9).
The variant GFTLNSYGIS, VIYSDGNRTHYADSVK, GRAAGTFDS showed 14 nM (3 of 3 replicates; controls 4 of 9).
The variant GFTLNSYGIS, CIYSDGRRTFYVDSVD, GRAAGTFDS showed no signal (0 of 3 replicates; controls 0 of 9).
The variant GFTLNSYGIS, VIYSKGRCTFYYDSVK, GRAAGTFDS showed no signal (0 of 3 replicates; controls 1 of 9).
The variant GFTLNSYGIS, VIYSDGRSTFYHDSVK, GRAAGTTDS showed no signal (0 of 3 replicates; controls 1 of 9).
The variant GFTLNSYGIS, VIYSDGRRTFYADSVK, GRAAGLPDS showed 930 pM (3 of 3 replicates; controls 4 of 9).
The variant GFTLNSYGID, VIYSDGRRTDYPDSVK, GRAAGTFDS showed 20 µM (3 of 3 replicates; controls 3 of 9).
The variant GFTLNSYGIS, VIYSDERRTFYRDSVK, GRAAGTFDS showed 61 µM (3 of 3 replicates; controls 4 of 9).
The variant GFTLNTYGIS, VIYSDGRRTFYADSVK, GRAAGTADS showed 450 µM (1 of 3 replicates; controls 3 of 9).
The variant GFTLNSYGIS, VIYSDGRRTFYSDSVK, DRACGTFDS showed no signal (0 of 3 replicates; controls 4 of 9).
The variant GFTLNSYGIS, VIYFDGRRTFYCDSVK, GRAAGTFDS showed no signal (0 of 3 replicates; controls 0 of 9).
The variant GFTLNSYGIS, VTYSDGRRTFYVDSVK, GRAAGTFPS showed 210 nM (1 of 3 replicates; controls 0 of 9).
The variant EFTLNSYGIE, VIYSDGRRTFYRDSVK, GRAAGTFDS showed no signal (0 of 3 replicates; controls 0 of 9).
The variant GFTLNSYGIS, VIYSDGRRTFYCDSVK, GRAAEPFDS showed 7.9 µM (1 of 3 replicates; controls 1 of 9).
The variant GFTLNSYGIS, VIYSDGRRTFYQDSVQ, GRAAGTFDS showed 210 nM (3 of 3 replicates; controls 0 of 9).
The variant NFTLNSYGMS, VIYSDGRRTFYKDSVK, GRAAGTFDS showed no signal (0 of 3 replicates; controls 0 of 9).
The variant GFTLNSYGIS, VIESDGRRTCYEDSVK, GRAAGTFDS showed 20 µM (2 of 3 replicates; controls 0 of 9).
The variant GFTLNSYGIS, VIYSDGRGTFYEDSVK, GRAACTFDS showed no signal (0 of 3 replicates; controls 1 of 9).

For reference, 6 entries of the list once more:

| CDR-H1 | CDR-H2 | CDR-H3 | apparent Kd | detected | empty controls |
|---|---|---|---|---|---|
| GFTLNSYGIS | VIYSDERRTFYRDSVK | GRAAGTFDS | 61 µM | 3 of 3 | 4 of 9 |
| GFTLNSYGIS | VIYSDGRRTFYIDSVK | GRAAGTHDR | 29 µM | 3 of 3 | 6 of 9 |
| GFTLNSYGIS | VIYSDGRRTFYSDSVK | DRACGTFDS | no signal | 0 of 3 | 4 of 9 |
| GFTLNSYGIS | VIYSDGRRTFYQDSVQ | GRAAGTFDS | 210 nM | 3 of 3 | 0 of 9 |
| GFTLNSYGIS | VIYSDGRCTFYCDSVK | GRAAGYFDS | 50 µM | 1 of 3 | 4 of 9 |
| GFELNSYGIS | VIYSDGRRTFYLDSVK | GRAAGSFDS | 54 nM | 3 of 3 | 1 of 9 |

In this assay the parent's reference entry averaged 4.4 nM; its copy inside this library read 13 µM (one replicate of three).
Empty control strains, which show no peptide, gave a signal in 15% of pairings with library AAYL49; the median was 11 µM and 95% of these signals were weaker than 680 nM. No background was subtracted. The control count says in how many pairings with the empty strains this scFv gave a signal.